# Measured values reported in published antibiotic growth screens (doi:10.1038/s41589-023-01349-8).
# This is one part of the list.
# Test system: A. baumannii ATCC 17978
# Test: relative growth (fraction of control); higher = less inhibition
# Conditions: 50 µM
row,Structure (SMILES),relative growth
1,CC(CCC(=O)O)[C@H]1CCC2C3C(=O)C[C@@H]4CC(=O)CC[C@]4(C)C3CC(=O)[C@@]21C (some centres not stated),0.967
2,Brc1ccc(-c2ccc(C3CCCCC3)cn2)cc1,1.05
3,CC(C)/C=C1\CC/C(=C\c2ccc(C(F)(F)F)cc2)C1=O,0.855
4,C[C@@H]1CN([C@H](C)CO)S(=O)(=O)c2ccc(C#C[C@@H](C)O)cc2O[C@H]1CN(C)C(=O)c1ccccc1,1.07
5,CN(C)CCC(c1ccccc1)c1ccccn1.O=C(O)/C=C\C(=O)O (configuration not stated),0.98
6,O=S(=O)([O-])CCCS(=O)(=O)[O-].[Na+].[Na+],1.07
7,O=C(O)c1csc2c1CCCCC2,0.889
8,O=C(/C=C(O)/C=C/c1ccc(O)c(O)c1)/C=C/c1ccc(O)c(O)c1,0.959
9,COc1cccc(-c2ccc3c(c2)O[C@@H](CN(C)C(=O)C2CCC2)[C@@H](C)CN([C@H](C)CO)S3(=O)=O)c1,0.713
10,COc1cc(OC)c(C(C)=O)c(O)c1C,1.24
11,CN(C)CC(=O)N[C@H]1C=C[C@@H](CC(=O)NCCN2CCCCC2)O[C@H]1CO,0.862
12,O=C(NCCN1CCOCC1)[C@@]1(CCS(=O)(=O)c2ccccc2)N=C(c2ccc(OCCCO)cc2)O[C@H]1c1ccccc1,0.951
13,Nc1ccccc1C(=O)N[C@H]1CCCCNC1=O,1.01
14,COC(=O)[C@@H](C)N(C#N)c1nc(C)cc(C)n1,1.07
15,COc1ccc(S(=O)(=O)N[C@@H]2C=C[C@H](CC(=O)N3CCN(c4ccccc4)CC3)O[C@H]2CO)cc1,0.982
16,C=CC[N+]1([C@H]2CC3C4CCC5C[C@H](O)[C@@H](N6CCOCC6)C[C@]5(C)C4CC[C@]3(C)[C@H]2OC(C)=O)CCCC1.[Br-] (some centres not stated),1.23
17,O=C(NCC[C@H]1CC[C@H](NS(=O)(=O)c2cccc(F)c2)[C@H](CO)O1)C1CC1,1.1
18,Cc1cc(O)c(C=O)c2c1C(=O)Oc1c(C)c(O)c3c(c1O2)C(O)OC3=O (configuration not stated),1.06
19,O=C(CN1CCOCC1)N[C@@H]1CC[C@H](CCn2cc(C3CC3)nn2)O[C@H]1CO,1.06

row,Structure (SMILES),relative growth
1,Cc1ccc(Oc2nnc(-c3cccs3)c3ccccc23)cc1,1.05
2,COc1ccc(CC[C@@H](OC(=O)[C@H]2CCCCN2C(=O)Cc2ccccc2)c2cccc(OCC(=O)O)c2)cc1OC,0.902
3,Nc1nonc1C(=O)N1CCCCC1,1.05
4,COc1ccc([Si](C)(C)[C@@H]2[C@@H](CC(=O)N(CCO)Cc3ccccc3)O[C@]3(C(=O)N(C)c4c(Br)cc(C)cc43)[C@H]2C)cc1,0.718
5,CN(C)CC(=O)N[C@H]1C=C[C@H](CC(=O)O)O[C@@H]1CO,0.929
6,O=C(C[C@@H]1CC[C@@H]2[C@H](COC[C@@H](O)CN2C(=O)c2ccccc2)O1)NCCCN1CCOCC1,0.989
7,CC[C@H]1[C@H](O)C2=C(CC3C(=O)OC(=O)/C3=C/[C@H]1CC)C(=O)OC2=O (some centres not stated),0.94
8,C[C@H](O)C#Cc1cnc2c(c1)C(=O)N([C@H](C)CO)C[C@H](C)[C@H](CN(C)C(=O)CN1CCOCC1)O2,1.07
9,CC(C)(C)OC(=O)N1CCNC(=O)C1,0.971
10,O=c1ccc2ccc(O)cc2o1,0.954
11,O=C(O)CCCCc1ccc(F)cc1,1.03
12,CN(C)/N=N/c1[nH]cnc1C(N)=O,0.155
13,O=C(O)c1cccnc1Nc1cccc(C(F)(F)F)c1,1.07
14,O=C(/C=C/c1cccc(-c2cn(-c3cccc(C(=O)N4CCC5(CC4)C(=O)NCN5c4ccccc4)c3)nn2)c1)NO,0.833
15,Cc1oncc1C(=O)Nc1ccc(C(F)(F)F)cc1,0.954
16,COc1cc(C)nc2nc(S(C)(=O)=O)nn12,1.17
17,O=C1C[C@@H]2C(=O)NCCN2C(NC(=O)c2ccccc2)=N1,1.13
18,C(=N\Cc1cccnc1)/c1c2ccccc2cc2ccccc12,0.932
19,Cc1ccc(S(=O)(=O)N2C[C@H](O)COC[C@@H]3O[C@H](CC(=O)NCc4ccc(Cl)c(Cl)c4)CC[C@H]32)cc1,0.766

row,Structure (SMILES),relative growth
1,CN1CCN(C(=O)C[C@@H]2C=C[C@H](NC(=O)c3ccc4c(c3)OCO4)[C@H](CO)O2)CC1,0.812
2,CC1CC(OC(=O)C(O)c2ccccc2)CC(C)(C)C1 (configuration not stated),0.949
3,COc1ccccc1-c1ccc2c(c1)O[C@H](CN(C)CC1CCOCC1)[C@H](C)CN([C@@H](C)CO)S2(=O)=O,0.896
4,Cc1ccc(C(=O)N2c3ccccc3Sc3ccccc32)cc1,1
5,CCOC(=O)[C@H](CCc1ccccc1)N[C@@H](C)C(=O)N1Cc2ccccc2C[C@H]1C(=O)O,1.16
6,O=C(O)c1cccc(O)c1O,0.953
7,NCC[C@@H]1CC[C@@H](NC(=O)c2ccccc2F)[C@@H](CO)O1,1.3
8,CC(=O)N[C@@H]1[C@@H](Oc2ccc(C(C)=O)cc2)O[C@H](CO)[C@H](O)[C@@H]1O,1.14
9,CCOC(=O)CN1CCN(C=O)CC1,1.03
10,O=C(NCc1nc2ccccc2[nH]1)C1=C[C@H](c2csc3ccccc23)C[C@H](OCc2ccc(CO)cc2)O1,1.07
11,O=C(C[C@H]1C=C[C@@H](NS(=O)(=O)c2ccc(F)cc2)[C@H](CO)O1)NCc1ccc(Cl)c(Cl)c1,0.91
12,COC(=O)CCCCCCC(=O)N/N=C/[C@H](O)[C@@H](O)[C@H](O)[C@H](O)CO[C@H]1O[C@H](CO)[C@H](O)[C@H](O)[C@H]1O,1.17
13,CC1(C)[C@H]2CC[C@@]1(C)c1nn(-c3ccccc3)c(C(F)(F)F)c12,0.937
14,C/N=C(\NC)NCCC[C@H](N)C(=O)O,0.891
15,C[C@H](O)C#Cc1ccc2c(c1)O[C@H](CN(C)C(=O)c1ccccc1)[C@@H](C)CN([C@H](C)CO)S2(=O)=O,1.13
16,Cn1cnc(S(=O)(=O)N[C@@H]2CC[C@@H](CC(=O)NCC3CC3)O[C@@H]2CO)c1,0.818
17,COc1ccc(NC(=O)Nc2ccc3c(c2)[C@H]2C[C@H](CC(=O)NCC(F)(F)F)O[C@@H](CO)[C@H]2O3)cc1,1.06
18,COc1ccc2c(=O)ccoc2c1,1.13
19,COc1ccc([Si](C)(C)[C@@H]2[C@@H](CCOC(=O)NCCCCCC(=O)NO)O[C@@]3(C(=O)N(Cc4ccccc4)c4ccc(NC(=O)[C@@H](C)OC(=O)NCCCCCC(=O)NO)cc43)[C@H]2C)cc1,0.934
